This is an account of results in patent US20250109275A1, “AMINE FATTY ACID ADDUCTS AS TIRE COMPOUNDING ADDITIVES” (priority 2023, published 2025).

Series [1] is described as follows: Flash point of the additive. Particulars: neat additive. The series is classed as physicochemical.
A short description of series [2]: Pour point of the additive. Type of series: physicochemical. Further details: unit not given here. Particulars: neat additive.

Take “triethylenetetramine (TETA) oleic acid amidoamine [Inventive Ex. 4]”: in series [1], the “Flash Point” value is reported as >200 C. For the same substance, the “Pour Point” value in series [2] worked out at 45.
